# Source: US20070078092A1, “Cell permeable conjugates of peptides for inhibition of protein kinases” (priority 2003, published 2007)
# Amino acid sequences for entries named in this document (tags omitted).
# UniProt P31749, whole entry, species assumed: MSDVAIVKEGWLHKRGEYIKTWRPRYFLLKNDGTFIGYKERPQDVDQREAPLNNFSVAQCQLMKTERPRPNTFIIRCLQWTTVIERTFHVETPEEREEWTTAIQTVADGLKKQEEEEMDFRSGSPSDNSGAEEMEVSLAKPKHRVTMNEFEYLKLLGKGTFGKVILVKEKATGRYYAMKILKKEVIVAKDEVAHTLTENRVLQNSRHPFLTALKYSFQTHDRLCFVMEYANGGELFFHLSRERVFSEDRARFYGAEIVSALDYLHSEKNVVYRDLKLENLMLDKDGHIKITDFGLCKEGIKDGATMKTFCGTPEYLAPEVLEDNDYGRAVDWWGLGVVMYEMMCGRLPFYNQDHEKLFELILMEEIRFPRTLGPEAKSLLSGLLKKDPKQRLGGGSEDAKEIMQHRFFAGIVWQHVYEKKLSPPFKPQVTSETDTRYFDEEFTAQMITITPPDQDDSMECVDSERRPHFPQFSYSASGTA
# Tests used:
# PKB = molecular target: T1, PKB (Homo sapiens, UniProt P31749); assay: PKB in vitro kinase activity assay; assay type: biochemical; details: read-out: in vitro PKB inhibition IC50; Table 3, assay A2
# T1 construct: His; HA; made in house
# Hep G2 cells = assay: In vitro metabolism in hepatic carcinoma cells (LC-MS); assay type: in vitro ADME
# Method: In addition, PTR 6320 was analyzed by LC-MS for in vitro metabolism in hepatic carcinoma cells. […] Hep G2 cells were incubated with 30 μM of PTR 6320 for 6 hours and peptides were extracted from the supernatants and the pellets of the cells. Samples were analyzed by LC-MS using pep 24 C18 Vydac 1.0*150 mm column in eluent gradient of MeCN:water (+0.1%TFA) with MS ESI detector in splitless mode. […] This indicates slow degradation of PTR 6320 in hepatic cells implying that peptide may be retained in the system enough time for efficient distribution.
# normal cells = assay: Safety to normal cells in vitro; assay type: cell-based
# From the text: Several cancer cell lines were used to determine the activity of PKB inhibitor compounds in intact cells. The human prostate carcinoma cell lines, PC-3 and LNCaP. The human acute T cells leukemia cell line, Jurkat. Human breast carcinoma cell lines: MCF-7 and MDA468 and renal adenocarcinoma cell 786-O. LNCaP,MDA468, 786-O and Jurkat cell lines express high basal level of activated PKB. PC-3 expresses moderate level of activated PKB. MCF-7 expresses low but inducible level of activated PKB. Control cells are PBLs, normal peripheral blood lymphocytes which obtained from normal donors (blood bank) and MCF10F which is a non tumorogenic breast cell line. The control cells are used to compare the effect of the protein kinase inhibitors on the tested cancer cells and the normal cells.
# Table 9 represents the cell death induced by the protein kinase inhibitors in prostate cancer cell lines vs. normal cells. The magnitude of cell death induced is in direct correlation with the levels of activated PKB in the various cells, as depicted in FIG. 12. […] Levels are in direct correlation with the magnitude of cell death induced by our inhibitors, as depicted in table 9.
# MTD determination = assay type: in vivo; details: assay C1, mice
# Method: Balb/C mice (male, 4-6 weeks old from Harlan Co. Israel) were used to determine the MTD.
# In addition, acute and chronic MTD were determined. As a first step, the acute MTD was determined after one IP injection of several dosages of 160, 80, 40, 20 and 10 mg/Kg body weight. For further testing the chronic MTD, mice were IP injected with 50%, 25% and 12.5% of the acute MTD daily for 3 consecutive weeks. Mice were daily monitored for general health status for the treatment period and 3 more additional weeks. At the end of the experiment full autopsy was preformed.
substance,measurement,setting,value
Arg-Gln-Ile-Lys-Ile-Trp-Phe-Gln-Asn-Arg-Arg-Met-Lys-Trp-Lys-Lys-6154 [Peptide AB60025-2],IC50,PKB,1000 nM
Cholesteryl-O—CO-(DLys)3-Arg-Pro-Arg-Nva-Tyr-Dap-Hol-NH2 [PTR 6320],undegraded peptide remaining in Hep G2 cells,"Hep G2 cells; 30 μM, 6 hours",still substantial amount of undegraded peptide
same,in vitro metabolism in hepatic carcinoma cells,Hep G2 cells; time course,initial drug metabolism after 1 hour and advanced metabolism after 24 hours
same,concentration safe to normal cells,normal cells,40 µM
Cholesteryl-O—CO-Arg-Pro-Arg-Nva-Tyr-Dap-Hol-NH2 [PTR 6164],MTD (maximal tolerated dose),MTD determination,above 130 mg/kg
Arg-Gln-Ile-Lys-Ile-Trp-Phe-Gln-Asn-Arg-Arg-Met-Lys-Trp-Lys-Lys-6184 [Peptide AB60025-4],IC50,PKB,200 nM
